Test results: patent US10092517B2, “Gelated microparticle suitable for oral delivery of therapeutic peptides to the lower intestine” (Insucaps Limited, priority 2015, dated 2018)

System: Caco-2 cells
Assay: Transport permeability of BD, free and encapsulated, through Caco-2 cells
Type: in vitro ADME
Details: transport of BD relative to free BD

R: 1.001
Substance: Blue Dextran [Free BD]
